Measured affinities in a library of Ab-14 light chain variants

The measurements come from Li et al. 2023 (doi:10.1038/s41467-023-39022-2) through the FLAb antibody collection.

Binding partner: SARS-CoV-2 spike HR2 peptide, sequence PDVDLGDISGINAS.

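Phage display of a naive human antibody library on the peptide gave the parent. These sequences belong to a second round, designed from the earlier measurements on random variants of the parent. Their group label is 14L_En_Gen (En: ensemble of fine-tuned language models; Gen: genetic algorithm). The assay is AlphaSeq: two haploid yeast populations carry antibody and antigen on their surface. Binding brings cells together so that they mate, and sequencing counts the barcode pairs among the diploids. A regression on co-assayed BCL2-family reference pairs converts the normalised counts of each replicate to an apparent Kd. Each pool was mated in six replicate cultures.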

The variants keep the heavy chain, the linker and the frameworks of Ab-14 (scFv order VH, a (GGGGS)3 linker, VL).
VH: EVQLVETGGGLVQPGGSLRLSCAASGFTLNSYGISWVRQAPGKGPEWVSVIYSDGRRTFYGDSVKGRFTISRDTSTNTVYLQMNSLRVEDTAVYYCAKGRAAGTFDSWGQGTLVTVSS
VL: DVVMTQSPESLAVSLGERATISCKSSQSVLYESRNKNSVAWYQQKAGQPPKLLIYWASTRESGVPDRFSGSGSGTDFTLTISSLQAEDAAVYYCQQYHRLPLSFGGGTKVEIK

Each variant is given by its three light chain CDRs, as the data file delimits them; those of the parent are KSSQSVLYESRNKNSVA, WASTRES, QQYHRLPLS.
Scale: log10 of Kd in nM, estimated from mating counts; low values are strong binders.
An entry "ND" has no value in the source: the pair was not observed among the diploids in that replicate. This suggests poor binding but is not conclusive.

CDR-L1	CDR-L2	CDR-L3	replicates, log10 nM	control signals
KLLQNTAVGMRWANNVA	HMSTREP	QQYHRLPFV	ND / ND / 1.38 / 0.87 / 2.56 / 2.53	1 of 18 (1.46)
MISQLYNMGQFAINSVA	QASERNE	QQYDRLPLQ	1.93 / 1.80 / 1.08 / 1.22 / 1.22 / 1.51	0 of 18
MISQLYNMGSFAINSVA	QASTRNE	QQYDRLPLM	1.42 / 1.43 / 1.29 / 1.80 / 2.02 / 1.33	1 of 18 (3.40)
KLTNITGTEKVKGNNVA	EMETREK	QQYNRLPLS	1.26 / 0.99 / 0.61 / 0.73 / 0.76 / 0.72	1 of 18 (3.00)
TISEVYNQALGMRNSVA	NNQTRED	QQYDRLPLS	ND / ND / ND / ND / ND / ND	0 of 18
KVSEFMRGMMRQKDSIA	DNETRES	QQYDRLPLS	1.83 / 1.71 / 1.29 / 1.52 / 2.23 / 2.07	1 of 18 (2.75)
MLSQMWALGTKVKNSVA	QASMRFN	QQYERLPLI	ND / 1.48 / 1.65 / 1.99 / ND / 2.39	0 of 18
HITYGMQVAGRAHSSIA	QAEERAK	QQYDRLPLI	0.79 / 0.67 / 0.47 / 0.75 / 1.05 / 0.85	1 of 18 (3.08)
MISQLYNMGSFAINSVA	QASMRNN	QQYDRLPLM	0.88 / 0.51 / 0.51 / 0.30 / 0.69 / 0.48	1 of 18 (1.58)
TISQVMNTLTREGNNVA	DLQERES	QQYFRLPLS	2.19 / 1.90 / 1.52 / 1.83 / 1.69 / 1.69	1 of 18 (2.39)
KISMMINMTFEQSNNVA	EMATREK	QQYNRLPLS	1.32 / 1.66 / 2.35 / 1.13 / 1.04 / 1.52	0 of 18
TISQMWNMGQFAINSVA	QASERNT	QQYDRLPLI	0.75 / 1.62 / 1.20 / 0.99 / 0.89 / 1.64	0 of 18
TISQVMNTLTRHGNNVA	DLQERED	QQYFRLPLS	0.51 / 0.22 / 0.35 / 0.11 / 0.11 / 0.50	3 of 18 (2.43)
KVSEFMKGLMMRKDSIA	DNNTRGA	QQYDRLPLS	1.98 / 2.50 / 2.24 / 2.21 / 2.43 / 2.55	1 of 18 (2.83)
HMSALTLQGMRARNSVA	QMTTREN	QQYDHLPLA	2.11 / 1.32 / -0.15 / 0.69 / 1.14 / ND	0 of 18
KLSQVTGHMQVEKNNVA	EMETRGN	QQYDRLPLS	0.61 / 0.69 / 0.81 / 0.50 / 0.88 / 0.74	0 of 18
MMSQVQGLGQRHRNNVA	QTSTRED	QQYDRLPLI	1.29 / 1.22 / 0.92 / 0.61 / 0.92 / 1.15	0 of 18
TISQVMNTLTRHGNNVA	DLAEREA	QQYFRLPLS	ND / 1.72 / ND / ND / 1.45 / 2.37	0 of 18
QLSMITGHVSMTKNNVA	EMETRMN	QQYDRLPLS	0.77 / 0.95 / 0.82 / 0.73 / 0.26 / 1.90	0 of 18
MIYGANRELGLAANSIA	DNVTRYQ	QQYERLPLS	ND / ND / ND / 2.33 / ND / ND	0 of 18
TISQMTSLFSQSINNVA	EVSMREP	QQYDRLPLM	0.96 / 0.56 / 1.35 / 0.46 / 0.38 / 0.38	0 of 18
KISMLINQTFEQSNNVA	EMVTREK	QQYNRLPLS	1.28 / 1.27 / 2.06 / 1.20 / 0.40 / 1.11	0 of 18
HITMGMYVHGRHHSSIA	QAETRAK	QQYDRLPLI	ND / ND / 1.44 / ND / ND / ND	1 of 18 (2.01)
IVSQLMLWGYHAKNSIA	EAEMRLN	QQYERLPLF	ND / ND / ND / ND / ND / ND	0 of 18
MIYGAQRELGLKANSIA	DNVTRYN	QQYERLPLS	ND / 2.33 / 3.07 / 1.90 / 2.43 / 2.84	3 of 18 (2.39)
MVNGIMDHLSKNTNNVA	ETSTRNS	QQYDRLPLV	0.63 / 0.57 / 0.91 / 0.28 / 0.40 / 0.32	0 of 18
KISQMVRVGSTHGNSIA	EEATRAK	QQYHRLPLA	ND / 1.17 / 1.76 / 0.61 / 1.12 / 1.26	0 of 18
KIGMTLNQLMHKKNNVA	DLVERED	QQYHRLPLS	0.42 / 0.37 / 0.28 / 0.25 / 0.68 / 0.48	0 of 18
KIGMTLNTLMRKKNNVA	DLVERAN	QQYFRLPLS	0.73 / 0.46 / 0.39 / 0.05 / 0.33 / 0.43	0 of 18
MIYGAAMELGRAYNSIA	DNVTRYD	QQYERLPLS	2.17 / 1.72 / 1.82 / 2.75 / 1.00 / 1.25	2 of 18 (3.68)
MISQVMNTLTRHGNNVA	DLAEREQ	QQYFRLPLS	ND / ND / ND / ND / ND / ND	1 of 18 (1.38)
KLVQFMNRGTHHTSNIA	DAALRED	QQYARLPLA	0.37 / 0.36 / 0.20 / 0.74 / 0.77 / 0.38	0 of 18
IVSQLMLWGMHVKNSIA	EAVTRIN	QQYERLPLF	ND / ND / ND / ND / ND / ND	0 of 18
KISQMARVGSTHGNSIA	EEATRCD	QQYHRLPLS	0.74 / 0.46 / 0.39 / 0.34 / 0.43 / 0.64	1 of 18 (4.50)
MISQVMNTLTRQGNNVA	DLQNRED	QQYFRLPLS	1.70 / 0.81 / 1.36 / 1.33 / 1.76 / 1.22	0 of 18

For reference, 6 entries of the list once more:

CDR-L1	CDR-L2	CDR-L3	replicates, log10 nM	control signals
MIYGANRELGLAANSIA	DNVTRYQ	QQYERLPLS	ND / ND / ND / 2.33 / ND / ND	0 of 18
KIGMTLNQLMHKKNNVA	DLVERED	QQYHRLPLS	0.42 / 0.37 / 0.28 / 0.25 / 0.68 / 0.48	0 of 18
KLVQFMNRGTHHTSNIA	DAALRED	QQYARLPLA	0.37 / 0.36 / 0.20 / 0.74 / 0.77 / 0.38	0 of 18
MMSQVQGLGQRHRNNVA	QTSTRED	QQYDRLPLI	1.29 / 1.22 / 0.92 / 0.61 / 0.92 / 1.15	0 of 18
HITMGMYVHGRHHSSIA	QAETRAK	QQYDRLPLI	ND / ND / 1.44 / ND / ND / ND	1 of 18 (2.01)
MIYGAAMELGRAYNSIA	DNVTRYD	QQYERLPLS	2.17 / 1.72 / 1.82 / 2.75 / 1.00 / 1.25	2 of 18 (3.68)

The parent sequence was in this pool as ten entries: three were never detected, three once, and four in most replicates, with averages from 0.34 to 2.37.
A sequence measured in both rounds can read differently, since the two assays cover different ranges.
Background: pairings of all light chain designs with three empty control strains gave a value in 4% of cases (median 2.64, 5th percentile 1.59). Values in that range, when seen in few replicates, are hard to tell from nonspecific mating. Also given: how often the same scFv was detected with the empty control strains, with their mean in brackets.
In the paper, a design with two or fewer of six values counts as a poor binder.